Test system: Shh pathway activity in Ptc1−/− cells

Row | SMILES | blocking/suppression of pathway activity in cells lacking Ptc1 function | Maximum normalized β-galactosidase activity | minimum normalized β-galactosidase activity
1 | CC1=C2C(=O)[C@H]3[C@@H](CC=C4C[C@@H](O)CC[C@@]43C)[C@@H]2CCC12O[C@@H]1C[C@H](C)CN[C@H]1[C@H]2C (stereo partly shown) [Compound 2, jervine] | fully suppressing |  | 
2 | CC1=C2C[C@H]3[C@@H](CC=C4C[C@@H](O)CC[C@@]43C)[C@@H]2CC[C@]12O[C@@H]1C[C@H](C)CN[C@H]1[C@H]2C [Compound 1, cyclopamine] | fully suppressing | 916 | 144
